In patent US9096492B2, “Hydrated N-fullerene amino acids, method for producing the latter, and pharmaceutical compositions on the basis thereof” (priority 2011, dated 2015):
Where two headings read alike, the source gives them in different places.

How the values were obtained:
[1] = rat, in vivo
[2] = rat, in vivo; remark: listed apart in the source
[3] = Acute toxicity in rats after a single intramuscular injection; format: in vivo, Wistar rats

Substance: N-fullerene tris(δ-aminocaproic acid) hydrate [Agent 1]
- Weight coefficients of viscera, Testicles [1]: 9.7 ± 1.2 g/kg body weight
- Weight coefficients of viscera, Testicles ([1]; 3 mg/kg): 10.4 ± 1.3 g/kg body weight
- Avg. erythr. volume., Mcm ([2]; 3 mg/kg): 55.2 ± 4.6 Mcm
- Avg. erythr. volume., mcm ([2]; 3 mg/kg): 52.0 ± 1.6 mcm
- Leukocytes ths/mm^3 ([2]; 3 mg/kg): 21.4 ± 4.7 ths/mm^3
- Leukocytes, ths/mm^3 ([2]; 3 mg/kg): 22.0 ± 6.8 ths/mm^3
- Avg. erythr. volume., Mcm ([2]; 9 mg/kg): 52.4 ± 1.5 Mcm
- Avg. erythr. volume., mcm ([2]; 9 mg/kg): 53.4 ± 4.6 mcm
- Leukocytes ths/mm^3 ([2]; 9 mg/kg): 20.4 ± 8.8 ths/mm^3
- Leukocytes, ths/mm^3 ([2]; 9 mg/kg): 19.6 ± 2.5 ths/mm^3
- Avg. erythr. volume., Mcm ([2]; 20 mg/kg): 52.2 ± 3.4 Mcm
- Leukocytes ths/mm^3 ([2]; 20 mg/kg): 19.7 ± 3.2 ths/mm^3
- Leukocytes, ths/mm^3 ([2]; 20 mg/kg): 24.8 ± 6.2 ths/mm^3
- Animal body weight (M ± SD) ([3]; females, 5 mg/kg single intramuscular, day 7): 183 ± 15.0 g
- Animal body weight (M ± SD) ([3]; females, 5 mg/kg single intramuscular, day 14): 206 ± 17.0 g
- Animal body weight (M ± SD) ([3]; females, 50 mg/kg single intramuscular, day 7): 177 ± 17.5 g
- Animal body weight (M ± SD) ([3]; females, 50 mg/kg single intramuscular, day 14): 201 ± 15.8 g
- Animal body weight (M ± SD) ([3]; females, 500 mg/kg single intramuscular, day 14): 198 ± 10.3 g
- Animal body weight (M ± SD) ([3]; males, 5 mg/kg single intramuscular, day 0): 188 ± 12.5 g
- Animal body weight (M ± SD) ([3]; males, 50 mg/kg single intramuscular, day 0): 190 ± 14.3 g
- Animal body weight (M ± SD) ([3]; males, 500 mg/kg single intramuscular, day 0): 189 ± 14.1 g
- Animal body weight (M ± SD) ([3]; males, 500 mg/kg single intramuscular, day 7): 207 ± 19.3 g
